Test results reported in article PMC11081522, “In silico identification of a novel Cdc2‐like kinase 2 (CLK2) inhibitor in triple negative breast cancer” (Protein Science : A Publication of the Protein Society, 2024).
pIC50: −log10 of the molar value.

Amino acid sequences for entries named in this document (tags omitted).
UniProt P49760, whole entry: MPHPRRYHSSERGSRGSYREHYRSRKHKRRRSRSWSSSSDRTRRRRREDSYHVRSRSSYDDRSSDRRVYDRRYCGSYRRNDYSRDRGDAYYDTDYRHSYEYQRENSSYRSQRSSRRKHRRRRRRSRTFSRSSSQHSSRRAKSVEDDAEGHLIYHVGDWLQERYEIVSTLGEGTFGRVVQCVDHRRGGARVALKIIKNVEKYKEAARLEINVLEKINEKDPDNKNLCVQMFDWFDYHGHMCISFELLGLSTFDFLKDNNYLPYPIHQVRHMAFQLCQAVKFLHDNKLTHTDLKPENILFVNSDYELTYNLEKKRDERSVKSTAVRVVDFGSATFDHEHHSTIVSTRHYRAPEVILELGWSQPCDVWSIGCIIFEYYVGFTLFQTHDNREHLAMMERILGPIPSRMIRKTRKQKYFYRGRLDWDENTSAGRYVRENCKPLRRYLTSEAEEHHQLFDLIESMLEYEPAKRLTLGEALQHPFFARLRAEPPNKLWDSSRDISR

Biological target: CLK2 (Cdc2-like kinase 2) (Homo sapiens, UniProt P49760)
Assay: Z'LYTE FRET peptide kinase assay
Conditions: read-out: CLK2 IC50; ATP and peptide substrate; 1% DMSO; room temperature, 60 min
Source text: Z'LYTE FRET peptide kinase assay on CLK2 (Cdc2-like kinase 2)

Cc1nc(Nc2ccccc2)c2c(-c3ccccc3)c[nH]c2n1
pIC50: 5.75
